Measured affinities in a library of Ab-95 light chain variants

Antigen: PDVDLGDISGINAS, a 14-residue peptide of the SARS-CoV-2 spike HR2 region.

Ab-95 is the parent antibody, in scFv form: VH, then a 15-residue (Gly4Ser)3 linker, then VL. The heavy chain is unchanged in all variants.
VH: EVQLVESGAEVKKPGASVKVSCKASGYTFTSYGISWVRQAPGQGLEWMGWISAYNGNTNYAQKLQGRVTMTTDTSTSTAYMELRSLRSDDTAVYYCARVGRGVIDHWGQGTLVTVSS
VL: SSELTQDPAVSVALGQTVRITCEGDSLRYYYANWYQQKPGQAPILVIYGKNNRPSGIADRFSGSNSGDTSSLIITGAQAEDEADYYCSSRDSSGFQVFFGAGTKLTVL

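The starting antibody came from a phage panning campaign against this peptide. Variants in AAYL52 differ from the parent at up to three CDR positions; double and triple changes were sampled at random. The scFvs were displayed on barcoded MATa yeast, the peptide on MATalpha yeast. The frequency of each diploid, read from paired DNA barcodes, reflects how well the two displayed proteins bind. A regression on co-assayed BCL2-family reference pairs converts the normalised counts of each replicate to an apparent Kd. The assay was run in three technical replicates.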

Substitutions are numbered in sequence along the VL above, starting at 1 (not Kabat). Scale: log10 of Kd in nM, estimated from mating counts; low values are strong binders. Replicates are averaged; those with no signal do not enter the mean. "n.d." means that the variant was in the library but no mating with the target was seen in that replicate; the authors take this as a sign of poor binding, and no number exists. Nonspecific signal, from three strains lacking the peptide, appeared in 28% of pairings of library AAYL52, centred on 3.91 (5% of these signals below 2.90); values are not corrected for it. The control count says in how many pairings with the empty strains this scFv gave a signal, with their mean in brackets. Parent in this assay: reference entry 2.31, copy in this library 2.25.

changes,log10 Kd (nM) by replicate,mean log10 Kd (nM),signal with controls
Y29I+S93L+V97P,n.d. 4.31 n.d.,4.31,3/9 (4.22)
N33A+G49F+S92Q,n.d. n.d. n.d.,n.d.,3/9 (3.28)
D25M+N51V,3.43 4.24 n.d.,3.84,2/9 (3.64)
Y31V+N51R+F95L,n.d. n.d. n.d.,n.d.,6/9 (3.91)
S92H+S93F,2.73 2.83 2.23,2.60,2/9 (3.78)
N52T+S55F+R90T,3.95 n.d. n.d.,3.95,1/9 (3.93)
D25Q+N33G+N51Q,n.d. n.d. n.d.,n.d.,0/9
D25N+A32Y+G49F,n.d. 4.55 n.d.,4.55,1/9 (3.76)
S26F+R28N,3.17 3.66 n.d.,3.41,1/9 (4.78)
R28I+R90C+S92G,2.69 4.50 2.98,3.39,3/9 (4.50)
N51C+S88N+G94V,3.77 3.36 3.49,3.54,7/9 (4.33)
A32D+R90S+G94L,4.44 3.98 n.d.,4.21,4/9 (4.06)
K50Y+N52P+F98K,n.d. n.d. n.d.,n.d.,2/9 (3.73)
P54M+G94P,n.d. n.d. n.d.,n.d.,2/9 (4.71)
N52S+G94A+F95E,2.74 2.85 1.89,2.50,2/9 (4.14)
N33V+S93Y+F98T,n.d. n.d. n.d.,n.d.,3/9 (4.22)
A32F+K50F+S88N,2.87 3.38 n.d.,3.12,4/9 (3.89)
R28W+R53W+D91Q,4.11 n.d. n.d.,4.11,6/9 (4.21)
G49T+S88A+S89P,4.91 4.87 n.d.,4.89,1/9 (3.89)
R28A+N51I+R53Q,n.d. n.d. n.d.,n.d.,2/9 (3.66)
E23G+S26I+S92T,3.18 3.40 3.91,3.50,1/9 (3.59)
E23V+Y31V+P54A,2.89 2.93 2.83,2.89,6/9 (3.85)
Y30M+A32T+N33G,n.d. 3.77 n.d.,3.77,6/9 (3.59)
L27N+K50L+S92G,3.59 n.d. 3.07,3.33,3/9 (4.12)
Y31Q+P54T+V97N,2.95 2.44 2.87,2.75,5/9 (3.86)
L27F+P54R+G94P,3.61 n.d. 4.22,3.92,6/9 (4.26)
G24V+G49P+N52C,n.d. 5.84 n.d.,5.84,3/9 (4.36)
N33R+R53I+F95C,n.d. n.d. 3.99,3.99,4/9 (4.08)
D25T+N51W+G94E,3.91 n.d. n.d.,3.91,1/9 (3.99)
L27Y+N33I,n.d. n.d. n.d.,n.d.,2/9 (3.94)
L27T+N52L+S92R,2.37 2.29 2.32,2.33,3/9 (3.29)
D91L+S93Q+F98Y,2.22 2.85 2.16,2.41,3/9 (4.37)
K50S+N52G+P54M,2.57 2.57 2.15,2.43,2/9 (3.88)
L27D+A32Q+G94H,3.78 3.33 4.50,3.87,4/9 (4.38)
N33S+S89A+F95K,3.18 3.29 3.31,3.26,1/9 (3.74)
E23C+R28G+N52Q,2.72 2.31 2.15,2.39,3/9 (3.77)
A32T+G49R+S55Q,3.78 n.d. n.d.,3.78,3/9 (4.10)
Y30C+S88C+S89R,2.12 2.18 1.57,1.96,4/9 (3.88)
D25T+P54A,2.22 2.14 1.76,2.04,1/9 (3.50)
N33C+G49D+F95I,4.04 4.97 n.d.,4.50,3/9 (3.66)
E23C+G49F+Q96G,5.60 4.84 n.d.,5.22,2/9 (3.91)
R28A+F95Y,2.03 2.03 1.52,1.86,2/9 (4.53)
N33I+K50R+S93A,n.d. n.d. n.d.,n.d.,0/9
G49K+S89G+S93E,2.44 2.28 2.81,2.51,5/9 (3.94)
Y30L+D91C+S93M,n.d. 3.08 n.d.,3.08,2/9 (4.61)

The closing 6 entries, repeated:

changes,log10 Kd (nM) by replicate,mean log10 Kd (nM),signal with controls
N33C+G49D+F95I,4.04 4.97 n.d.,4.50,3/9 (3.66)
E23C+G49F+Q96G,5.60 4.84 n.d.,5.22,2/9 (3.91)
R28A+F95Y,2.03 2.03 1.52,1.86,2/9 (4.53)
N33I+K50R+S93A,n.d. n.d. n.d.,n.d.,0/9
G49K+S89G+S93E,2.44 2.28 2.81,2.51,5/9 (3.94)
Y30L+D91C+S93M,n.d. 3.08 n.d.,3.08,2/9 (4.61)

From the AlphaSeq antibody data of Engelhart et al. 2022 (doi:10.1038/s41597-022-01779-4), copy in the FLAb collection.